Data on one molecule can be found in patent US9452997B2, “Piperidine and piperazine derivatives as autotaxin inhibitors” (Merck Patent GmbH, priority 2009, dated 2016).

In this experiment the target is Recombinant autotaxin (Homo sapiens, UniProt Q13822). Nature of the experiment: Autotaxin assay (Amplex Red, LPC substrate). Particulars: read-out: IC50 value, Amplex Red detection, values given as upper bounds. The protocol:
Autotaxin activity is measured indirectly by means of Amplex Red Reagent. In this course, Amplex Red is measured as fluorogenic indicator for generated H2O2. Autotaxin converts substrate lysophosphatidylcholine (LPC) to phosphocholine and lysophosphatidylic acid (LPA). After the conversion phosphocholine is reacted with alkaline phosphatase to obtain inorganic phosphate and choline. During the next step choline is oxidized with choline oxidase to yield betaine, whereby H2O2 is generated. H2O2 reacts with Amplex Red Reagent in the presence of peroxidase (Horseradish peroxidase) in an 1:1 stochiometry and yields highly fluorescent resorufin. The generated fluorescence is measured in a reaction-dependent kinetic mode in order to enable subtraction of fluorescence signals of possible other fluorescent compounds that are not part of the reaction from total measured fluorescence. […]
Thereafter, the reaction is started through the addition of 5 μL-a-lysophosphatidyl-choline (LPC), whereby the final concentration of LPC is 75 μM. […] The fluorescence is immediately measured at a wavelength of 612 nm with an excitation wavelength of 485 nm in a “Tecan Ultra multimode” fluorescence reader. The activity of autotaxin is indirectly calculated via the amount of detected generated H2O2. […]
IC50 values were calculated on normalized data. […]

Some results are limits rather than exact numbers.

Consider `O=C(CCc1ccc([N+](=O)[O-])cc1)N1CCC(N2CCN(C(=O)c3ccc4[nH]nnc4c3)CC2)CC1`, for which the IC50 (in general, the point on the concentration scale where inhibition reaches its midpoint) is less than 1000 nM.
